In PubChem BioAssay AID1700 (The Scripps Research Institute Molecular Screening Center, 2009):
This is a selection; strong and weak results do not stand in their true shares. The source made the active and inactive calls.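 Rule for the calls: active = inhibition above a per-plate limit of that plate's mean compound inhibition plus 3 SD (cut at about 60% in these data); inactive = the rest.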

Assay: suppression of KLF5 promoter-driven luciferase – DLD-1 cells, luminescence, primary screen (AID 1700);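 note: 0% = DMSO wells and 100% = LY294002 at 200 µM; higher means less KLF5 promoter-driven luciferase light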
Conditions: DLD-1 KLF5 promoter-luciferase reporter, at 5 µM, hits give high values
For `O=C(OC1CN2CCC1CC2)C1c2ccccc2C=Cc2ccccc21` (centres undefined), the inhibition was inactive: -1.01%. In the case of `CCOC(=O)N1CCC(Nc2ccc(C)cc2)CC1`, the inhibition is reported as inactive: -37.7%. For `N/C(=N\O)c1c(N)no[n+]1[O-]`, the inhibition was inactive: -54.5%. In the case of `COc1ccc(C(=O)NCC2(N3CCOCC3)CCCCC2)cc1OC`, the inhibition is reported as inactive: -37.4%. In the case of `CN(C)C1(CNC(=O)c2cccc(C#N)c2)CCCCC1`, the inhibition is reported as inactive: -4.12%. For `CCCN1CCC(Nc2cc(OC)cc(OC)c2)CC1`, the inhibition was inactive: -11.9%. In the case of `c1ccc(CN2CCC(Nc3ccccc3)CC2)cc1`, the inhibition is reported as inactive: -3.93%. In the case of `N#Cc1ccc(C(=O)NCC2(N3CCCCC3)CCCCC2)cc1`, the inhibition is reported as inactive: -4.07%. With `CC(C)(C)OC(=O)N1CCC(N(C(=O)c2ccccc2)c2ccc(Cl)cc2)CC1` the inhibition was inactive: -52.6%. In the case of `CN(C)c1ccc(C(=O)NCC2(N3CCCCC3)CCCCC2)cc1`, the inhibition is reported as inactive: 7.25%. With `CCN1CCC(Nc2cccc(F)c2)CC1` the inhibition was inactive: -1.04%. For `COc1cc(OC)cc(C(=O)NCC2(N3CCCCC3)CCCCC2)c1`, the inhibition was inactive: 15.9%. In the case of `CN1CCC(Nc2ccc(Cl)cc2)CC1`, the inhibition is reported as inactive: -6.18%. In the case of `CCCOc1ccc(C)cc1CN(CCCl)CCCl`, the inhibition is reported as inactive: -6.41%. In the case of `COc1cc(OC)cc(C(=O)NCC2(N3CCOCC3)CCCCC2)c1`, the inhibition is reported as inactive: -4.37%. For `COc1cccc(C(=O)N(c2cc(C)cc(C)c2)C2CCN(C(=O)OC(C)(C)C)CC2)c1`, the inhibition was inactive: -27.8%. For `CCC(CO)(C(=O)OC1CN2CCC1CC2)c1ccccc1` (centres undefined), the inhibition was inactive: -20.2%. With `O=C(O)C1(Nc2ccccc2)CCN(Cc2ccccc2)CC1` the inhibition was inactive: -22.2%. For `CC(C)(C)OC(=O)N1CCC(Nc2ccccc2)CC1`, the inhibition was inactive: -9.96%. In the case of `CCCOc1ccc(C(=O)NCC2(N(C)C)CCCCC2)cc1`, the inhibition is reported as inactive: -15.2%. For `CN1CCC(Nc2ccc(F)c(Cl)c2)CC1`, the inhibition was inactive: -32%. In the case of `CCOc1ncccc1C(=O)NCC1(N2CCOCC2)CCCCC1`, the inhibition is reported as inactive: -11.2%. In the case of `O=C(OC1CN2CCC1CC2)C1c2ccccc2Oc2ccccc21` (centres undefined), the inhibition is reported as inactive: -4.89%. For `N#CC1(Nc2ccccc2)CCN(Cc2ccccc2)CC1`, the inhibition was inactive: -7.43%. With `CCOC(=O)N1CCC(Nc2ccc(OC)cc2)CC1` the inhibition was inactive: -23.7%. For `Cc1cc(C)cc(N(C(=O)c2ccccc2)C2CCN(C(=O)OC(C)(C)C)CC2)c1`, the inhibition was inactive: -17.4%. In the case of `O=C(NCC1(N2CCOCC2)CCCCC1)c1cc2ccccc2o1`, the inhibition is reported as inactive: -11.2%. In the case of `CSc1ccccc1C(=O)NCC1(N2CCCCC2)CCCCC1`, the inhibition is reported as inactive: -7.63%. For `COc1ccc(C(=O)NCC2(N3CCCCC3)CCCCC2)c(OC)c1OC`, the inhibition was inactive: -5.09%. In the case of `CC(C)(C)OC(=O)N1CCC(N(C(=O)c2ccccc2)c2ccc(F)cc2)CC1`, the inhibition is reported as inactive: -31.7%. With `COc1ccc(C(=O)NCC2(N3CCCCC3)CCCCC2)cc1` the inhibition was inactive: -15.8%. In the case of `O=C(NCC1(N2CCCCC2)CCCCC1)c1ccc(=O)[nH]c1`, the inhibition is reported as inactive: 11.9%. In the case of `Cc1ccc(OCC(C)C)c(CN(CCCl)CCCl)c1`, the inhibition is reported as inactive: -1.48%. In the case of `COc1cc(C(=O)NCC2(N(C)C)CCCCC2)ccc1OC(F)F`, the inhibition is reported as inactive: -35.5%. With `CCOC(=O)N1CCC(Nc2cccc(C)c2)CC1` the inhibition was inactive: -14.1%. In the case of `COc1ccc(NC2CCN(CCc3ccccc3)CC2)c(OC)c1`, the inhibition is reported as inactive: -15.9%. With `CCOC(=O)N1CCC(Nc2ccc(F)cc2)CC1` the inhibition was inactive: -10.3%. With `O=C(NCC1(N2CCCCC2)CCCCC1)c1ccc(F)cc1` the inhibition was inactive: -16.1%. For `CCOc1ccc(C)cc1CN(CCCl)CCCl`, the inhibition was inactive: -34.8%. In the case of `COc1cc(C(=O)NCC2(N3CCCCC3)CCCCC2)ccc1OC(F)F`, the inhibition is reported as inactive: 0.34%. In the case of `O=C(NCC1(N2CCOCC2)CCCCC1)c1cc(=O)[nH]c2ccccc12`, the inhibition is reported as inactive: -25.2%. For `CN1CCN(CCOC(=O)C(O)(c2ccccc2)c2ccccc2)CC1`, the inhibition was inactive: -13.8%. In the case of `COc1ccc(NC2CCN(C(=O)OC(C)(C)C)CC2)cc1`, the inhibition is reported as inactive: -21.5%. With `O=C(NCC1(N2CCCCC2)CCCCC1)c1cccc(C(F)(F)F)c1` the inhibition was inactive: -48.3%. With `N#CC1(Nc2ccccc2)CCN(CCc2ccccc2)CC1` the inhibition was inactive: -11.1%. For `CCN1CCC(Nc2ccc(Cl)cc2)CC1`, the inhibition was inactive: -19.1%. For `O=C(NCC1(N2CCCCC2)CCCCC1)c1cccc([N+](=O)[O-])c1`, the inhibition was inactive: -25.5%. In the case of `O=C(NCC1(N2CCCCC2)CCCCC1)c1ccc(OC(F)F)cc1`, the inhibition is reported as inactive: -33.6%. With `CCCOc1ccc(C(=O)NCC2(N(C)C)CCCCC2)cc1OC` the inhibition was inactive: -14.2%. In the case of `CN1CCC(Nc2cccc(F)c2)CC1`, the inhibition is reported as inactive: -23.3%. In the case of `COc1cc(OC)c(C(=O)NCC2(N(C)C)CCCCC2)cc1OC`, the inhibition is reported as inactive: -8.51%. In the case of `CC(C)c1ccc(NC2CCN(C(=O)OC(C)(C)C)CC2)cc1`, the inhibition is reported as inactive: -43.4%. For `CN(C)c1cccc(C(=O)NCC2(N3CCCCC3)CCCCC2)c1`, the inhibition was inactive: -14%. In the case of `COc1ccc(CN(CCCl)CCCl)cc1Cl`, the inhibition is reported as inactive: -24.3%.
